Assay: Stability of PAA in compositions and in presence of chelators (PAA test strips)
Description: A sanitizer composition containing 0.25% SLS, 0.05% LA, 0.125% magnesium sulfate, and 85 ppm PAA was prepared in the 300 ppm total hardness water described in Example 8. This solution was applied to a stainless steel cabinet (34.5 in.×72 in.) in the meat pilot plant with a FOAM-IT® 5 unit using the driest foam setting.
This Example illustrates the effect of chelating agent on sanitizer compositions. The amount of chelator added is intended to chelate a concentration of ions corresponding to 300 ppm hard water, which corresponds to 3 millimolar. Because water will often have a hardness of less than 300 ppm, leaving an excess of chelator, it is important to evaluate the stability of PAA with respect to the chelator. The excess chelator could cause increases in pH, which would decrease the amount of PAA present according to the reaction (Preparation, Properties, Reactions and Uses of Organic Peracids and their Salts, FMC Corporation, Inorganic Chemicals Division, New York, N.Y., 1964, p. 34):
Therefore, in anticipation of the worst case where soft water is used to prepare the solution from which the foam is generated, the stability of PAA in the presence of at least 3 millimolar of chelator was evaluated.
0.125 g of Na4EDTA and 0.170 g of 5% PAA were added to 100 g of DI water.
0.161 g of Na3EDTA and 0.170 g of 5% PAA were added to 100 g of DI water. […]

In the case of “sodium salts of ethylene diamine tetracetic acid”, the “stability of PAA in the presence of the chelator” value is reported as “rapidly decomposes”.
